{"source": "patent US9630894B2", "about": "“Energy efficient method and apparatus for the extraction of biomolecules from dilute aqueous solution” (DYNASEP INC., priority 2012, dated 2017)", "type_in_all_cases": "physicochemical", "key": {"[1]": {"test": "CCC extraction with DME of clarified fermentation broth from Clostridium acetobutylicum, GC and DNS assay", "protocol": "This example describes three different runs of the CCC with fermentation broth from Clostridium acetobutylicum. […] The fermentation was intentionally interrupted prior to completion.\nThe extraction column operated at room temperature (˜25° C.) throughout the column. Periodic extract and raffinate samples were taken and analyzed for the constituents in the extract and raffinate discharges.\nThis example describes three different runs. In all cases, the mass of solvent to the mass of feed ratio (S/F) was 0.9. In all example the fermentation broth was first centrifuged to removal all cellular matter. Thus, the feed solution was clarified. In the case of the first run, the following components were measured via gas chromatograph (GC) analysis using external standard calibration. The external standard was run prior to analyzing the samples to provide individual calibration between peak area and the respective constituent under measure. […] Acetate was the conjugate base of acetic acid. Butyrate was the conjugate base of butyric acid. All components were quantified in the extract and raffinate. Since the extract and raffinate are mostly water and DME dissolves in water to approximately 20 wt. %, the samples were allowed to degas over a 24 hour period.\nDuring the run, samples were taken of the extract and raffinate. In the case of the extract, the bulk DME was removed by reduction of pressure and addition of heat to flash the DME from the water and other solution constituents.\nExtract and raffinate samples were collected at periodic intervals during the CCC testing. […] Glucose was measured via a DNS (3,5-dinitrosalicylic acid) assay.\nIn cases where the extract formed a two phase solution, the extract samples were diluted with distilled water to create a single phase and homogenous sample prior to GC. The dilution factor was then used to correct the GC measurements for concentrations prior to dilution."}, "[2]": {"test": "Distribution coefficients of ABE mixtures between DME and aqueous phase in agitated pressure vessel, HPLC", "protocol": "The compositions of the aqueous mixtures were based on concentrations typically produced in a cellulosic fermentation.\nMixtures were charged to a pressure vessel and agitated to provide adequate contacting between the aqueous and solvent (DME) phases. Heat tape was used to control the temperature of the liquid that was measured by thermocouples. Pressure and temperature measurements were taken every five minutes. After temperature and pressure stabilization agitation was ceased and the liquid phases were allowed to fully settle.\nA mass balance was also performed on each component of the ABE and BE mixtures to determine a degree of accuracy of the results."}, "[3]": {"test": "Packed-column extraction of ethanol and ABE solutions with liquid DME, incremental distribution coefficients", "settings": "for Distribution Coefficient: ABE solution", "protocol": "The tests were carried out in a 50-inch long by 0.68-inch internal diameter (ID) column containing stainless steel distillation packing to increase mass transfer between the liquid DME and the aqueous solution. The flow rate of the liquid DME for all the tests was about […], which calculates to a superficial velocity of the liquid DME of ˜0.3 cm/sec.\nFor each test, about 65 g of a pre-made feed solution was charged to the extraction column, and the column was sealed. DME was introduced into the system and pressure was maintained at 250 psi with the lab pump. Each run was carried out at ambient temperature (about 30° C.), and flow was manually controlled with the pressure-reduction valve.\nAbout ⅓ of the charge was extracted in each test with DME in three fractions, and the raffinate was collected at the end of each test in two fractions. In the event that the concentration of ethanol, or ABE, in the raffinate was not homogeneous along the length of the column, the raffinate was collected in two fractions where RAF#1 was the first (bottom) portion of the raffinate drained and RAF#2 was the remaining (upper) portion.\nAll samples along with controls were sent to R.D. Laboratories (Washington, Mo.) for gas chromatography (GC) analysis.\nThe distribution coefficient (DC) is calculated as the ratio of the concentration of the component in the extract (y) phase to the concentration of the component in the raffinate (x) phase, or DC=Cy/Cx. Using the material balance information in the tables above, and the component analysis supplied by R.D. Labs, the incremental DCs for each fraction were calculated. These DCs are calculated using the conservative assumption that there is no dissolved DME in the liquid phase remaining in the extractor."}}}
{"substance": "n-butanol", "values": [{"measurement": "Distribution Coefficient", "setting": "[1]; Run 1, calculated from extract and raffinate measurements, ~25° C., S/F 0.9", "value": "~2.5"}, {"measurement": "distribution coefficients compared", "setting": "[1]; Run 2, isobutanol versus butanol", "value": "approximately equal"}, {"measurement": "concentration in sample", "setting": "[1]; Run 3, Extract Bot, time 31 min", "value": 33910, "unit": "µg/mL"}, {"measurement": "concentration in sample", "setting": "[1]; Run 3, Extract Bot, time 37 min", "value": 34660, "unit": "µg/mL"}, {"measurement": "concentration in sample", "setting": "[1]; Run 3, Extract Top, time 31 min", "value": 304970, "unit": "µg/mL"}, {"measurement": "concentration in sample", "setting": "[1]; Run 3, Extract Top, time 37 min", "value": 318400, "unit": "µg/mL"}, {"measurement": "concentration in sample", "setting": "[1]; Run 3, Extract, time 22 min", "value": 19100, "unit": "µg/mL"}, {"measurement": "concentration in sample", "setting": "[1]; Run 3, Extract, time 27 min", "value": 32630, "unit": "µg/mL"}, {"measurement": "concentration in sample", "setting": "[1]; Run 3, Extract, time 43 min", "value": 32950, "unit": "µg/mL"}, {"measurement": "concentration in sample", "setting": "[1]; Run 3, Extract, time 70 min", "value": 29580, "unit": "µg/mL"}, {"measurement": "concentration in sample", "setting": "[1]; Run 3, Extract, time 74 min", "value": 31100, "unit": "µg/mL"}, {"measurement": "concentration in sample", "setting": "[1]; Run 3, Extract, time 78 min", "value": 32830, "unit": "µg/mL"}, {"measurement": "concentration in sample", "setting": "[1]; Run 3, Extract, time 82 min", "value": 36640, "unit": "µg/mL"}, {"measurement": "concentration in sample", "setting": "[1]; Run 3, Feed, time 0 min", "value": 9430, "unit": "µg/mL"}, {"measurement": "concentration in sample", "setting": "[1]; Run 3, Raffinate, time 22 min", "value": 2040, "unit": "µg/mL"}, {"measurement": "concentration in sample", "setting": "[1]; Run 3, Raffinate, time 27 min", "value": 320, "unit": "µg/mL"}, {"measurement": "concentration in sample", "setting": "[1]; Run 3, Raffinate, time 31 min", "value": 300, "unit": "µg/mL"}, {"measurement": "concentration in sample", "setting": "[1]; Run 3, Raffinate, time 37 min", "value": 180, "unit": "µg/mL"}, {"measurement": "concentration in sample", "setting": "[1]; Run 3, Raffinate, time 43 min", "value": 160, "unit": "µg/mL"}, {"measurement": "concentration in sample", "setting": "[1]; Run 3, Raffinate, time 70 min", "value": 310, "unit": "µg/mL"}, {"measurement": "concentration in sample", "setting": "[1]; Run 3, Raffinate, time 74 min", "value": 330, "unit": "µg/mL"}, {"measurement": "concentration in sample", "setting": "[1]; Run 3, Raffinate, time 78 min", "value": 340, "unit": "µg/mL"}, {"measurement": "concentration in sample", "setting": "[1]; Run 3, Raffinate, time 82 min", "value": 340, "unit": "µg/mL"}, {"measurement": "distribution coefficient (slope of line fit)", "setting": "[2]; 38° C., DME/aqueous", "value": 2.86}, {"measurement": "distribution coefficient (slope of linear line fit)", "setting": "[2]; extract versus raffinate concentration, whole range, FIG. 5", "value": 2.9}, {"measurement": "DC", "setting": "[2]; test ABE1, 31.1 ° C., 104 psig, DME/aqueous", "value": 2.95}, {"measurement": "DC", "setting": "[2]; test ABE2, 38.3 ° C., 102 psig, DME/aqueous", "value": 2.72}, {"measurement": "DC", "setting": "[2]; test ABE3, 38.3 ° C., 103 psig, DME/aqueous", "value": 2.74}, {"measurement": "DC", "setting": "[2]; test ABE4, 38.0 ° C., 103 psig, DME/aqueous", "value": 2.97}, {"measurement": "DC", "setting": "[2]; test B1, […] C., 78 psig, DME/aqueous", "value": 3.17}, {"measurement": "DC", "setting": "[2]; test B2, 28.2 ° C., 83 psig, DME/aqueous", "value": 3.71}, {"measurement": "DC", "setting": "[2]; test B3, 29.6 ° C., 86 psig, DME/aqueous", "value": "2,49"}, {"measurement": "DC", "setting": "[2]; test BE1, 30.1 ° C., 85 psig, DME/aqueous", "value": 2.70}, {"measurement": "DC", "setting": "[2]; test BE2, 38.9 ° C., 107 psig, DME/aqueous", "value": 2.84}, {"measurement": "DC", "setting": "[2]; test BE3, 37.6 ° C., 103 psig, DME/aqueous", "value": 2.89}, {"measurement": "DC", "setting": "[2]; test BE3, 38.4 ° C., 106 psig, DME/aqueous", "value": 3.03}, {"measurement": "Distribution Coefficient", "setting": "[3]; fraction F1, liquid DME", "value": 0.95}, {"measurement": "Distribution Coefficient", "setting": "[3]; fraction F2, liquid DME", "value": 0.36}, {"measurement": "Distribution Coefficient", "setting": "[3]; fraction F3, liquid DME", "value": 0.04}, {"measurement": "distribution coefficient, previous measurements", "setting": "[3]; previous results, DME/aqueous", "value": "approximately one"}]}
